Source: paper PMC7926471 (Viruses, 2021)

System: HCoV-229E
Assay: Viral replication inhibition assay: HCoV-229E in MRC5 cells, PFU assay
Format: cell-based, Human Coronavirus 229E

## Oc1ccc(/C=C/c2cc(O)cc(O)c2)cc1 [Resveratrol, resveratrol]
MOI = 0.01, Figure 2
  HCoV-229E replication, low viral load (in words): inhibition of replication
Combinations of lopinavir/ritonavir, chloroquine, resveratrol, MOI 0.01, Figure 2B
  effect of combinatory treatment on HCoV-229E (in words): did not observe any synergistic effect
pre-treated 3 h or post-treated 4 h, MOI 1, Figure 3
  effect when cells were treated before or after the infection (in words): did not observe a significant difference
